According to US12570617B2 (Kyungpook National University Industry-Academic Cooperation …, priority 2020, dated 2026):

Tested on: cancer cachexia mouse model
Test: Cancer cachexia mouse model (CT26): grip test, Rota-rod test, cancer size, body weight, feed intake, fat and muscle weight
Format: in vivo
Conditions: cancer cachexia mice, oral 10 mg/kg once daily from 9th day, tested 18th day, vs Vehicle
Protocol: Cultured 1×10^6 cells were subcutaneously injected into the right side of the abdomen of 10-week-old mice. The size of the cancer grown in the right abdomen, body weight, and feed intake were measured once every time after cell injection, and 10 mg/kg of a triazole compound was orally administered daily from the 9th day. On the 18th day of cancer cell injection, each of the grip test and Rota-rod test for evaluating the muscle function was performed for 1 day. On the 20th day, subcutaneous fat, visceral fat and muscle (femur, calf) of the mouse were separated and weighed.
For the evaluation of muscle function, the grip test was performed by holding the mouse by having the mouse hold the metal grid attached to the grip strength meter, holding the tail of the mouse, and pulling it from behind horizontally. The force applied to the metal grid immediately before losing the grip was recorded in the measuring instrument as the maximum tension in g, and the entire process was performed 9 times per subject to record the average value. In the Rota-rod test (Ugo Basile, Comerio, VA, Italy), Rota-rod exercise was performed at least three times at a rotational speed of 4 rpm by using a machine equipped with a rod with the diameter of 3 cm appropriately processed to provide grip to measure the endurance time of the tested animals in seconds and record the average value. […]

**Q.** With `CCCCCCCCCn1cc(C(N)(CO)CO)nn1` [KARI201, 2-amino-2-(1-nonyl-1H-1,2,3-triazol-4-yl)propane-1,3-diol] as the compound, how does the “muscle strength function (Grip test and Rota-rod test)” value read?
**A.** significantly improved
